Experimental data reported in patent US9706755B2, “Controlled odor mimic permeation system” (dated 2017).

Assays:
[1] = tested on: explosives detection canines; assay: Overall / individual canine performance (alerts plus interests over all hides; real explosives, odor chemicals, NESTT silica and petrolatum aids; Tables 69-72); conditions: for total number of alerts or interest / total number of hides: interest reported as alert; for overall canine population response to odor chemical (alert/interest): Table 70, all field tests pooled, canines 120, 140, 141 discounted; for Total, alerts or interest / hides / Total, alerts or interest as percent of hides: all canines 101-144; for Adjusted Total, alerts or interest / hides / Adjusted Total, alerts or interest as percent of hides: removing canines 120, 140 & 141
[2] = tested on: trained and certified explosives detection canines; assay: Canine field trials, active odor determination (odor line-up of hide boxes)
[3] = tested on: explosives detection canines; assay: First field test of gauze mimic aids, COMPS kits (Table 94); conditions: 100 μl at 10% w/v Acetonitrile on Gauze in 2 mil LDPE, Electrical Box
[4] = Dog Number 120 (20/28 false alerts, discounted from adjusted totals)
[5] = Dog Number 140 (4/6 false alerts, discounted from adjusted totals)
[6] = Dog Number 141 (4/6 false alerts, discounted from adjusted totals)

Compound | total number of alerts or interest / total number of hides ([1]; Dog Number 101) | total number of alerts or interest / total number of hides ([1]; Dog Number 102) | total number of alerts or interest / total number of hides ([1]; Dog Number 103) | total number of alerts or interest / total number of hides ([1]; Dog Number 104) | total number of alerts or interest / total number of hides ([1]; Dog Number 106) | total number of alerts or interest / total number of hides ([1]; Dog Number 108) | total number of alerts or interest / total number of hides ([1]; Dog Number 109) | total number of alerts or interest / total number of hides ([1]; Dog Number 110) | total number of alerts or interest / total number of hides ([1]; Dog Number 113) | total number of alerts or interest / total number of hides ([1]; Dog Number 116) | total number of alerts or interest / total number of hides ([1]; Dog Number 117) | total number of alerts or interest / total number of hides ([1]; Dog Number 118) | total number of alerts or interest / total number of hides ([1]; Dog Number 119) | total number of alerts or interest / total number of hides [1, 4] | total number of alerts or interest / total number of hides [1, 5] | total number of alerts or interest / total number of hides [1, 6] | total number of alerts or interest / total number of hides ([1]; Dog Number 142) | total number of alerts or interest / total number of hides ([1]; Dog Number 144) | overall canine population response to odor chemical (alert/interest) [1] [%] | Total, alerts or interest / hides [1] | other results
CC(C)([N+](=O)[O-])C(C)(C)[N+](=O)[O-] | 0/1 | 1/1 | 0/2 | 0/1 | 0/1 | 0/2 | 0/4 | 0/1 | 0/2 | 0/3 | 0/2 | 1/4 | 0/3 | 4/4 | 1/1 | 1/1 | 1/1 | 0/1 | 12.5 | 11/45 | total number of alerts or interest / total number of hides ([1]; Dog Number 111): 0/1; total number of alerts or interest / total number of hides ([1]; Dog Number 112): 0/1; total number of alerts or interest / total number of hides ([1]; Dog Number 121): 1/1; total number of alerts or interest / total number of hides ([1]; Dog Number 124): 1/1; total number of alerts or interest / total number of hides ([1]; Dog Number 126): 0/2; total number of alerts or interest / total number of hides ([1]; Dog Number 127): 0/2; total number of alerts or interest / total number of hides ([1]; Dog Number 129): 0/1; total number of alerts or interest / total number of hides ([1]; Dog Number 133): 0/1; Total, alerts or interest as percent of hides [1]: 24.4%; Adjusted Total, alerts or interest / hides [1]: 5/39; Adjusted Total, alerts or interest as percent of hides [1]: 12.8%; interests (canines showing interest / canines tested) ([2]; Table 55, 5.0 mg): 2/11; interests (canines showing interest / canines tested) ([2]; Table 56, 100 ug): 1/7; interests (canines showing interest / canines tested) ([2]; Table 57, 5.0 mg): 0/9
c1ccc(Nc2ccccc2)cc1 | 0/1 | 1/1 | 0/1 | 0/1 | 0/1 | 1/1 | 0/1 | 0/1 | 0/2 | 0/2 | 0/1 | 1/2 | 1/2 | 3/3 | 1/1 | 1/1 | 1/1 | 1/1 | 35.0 | 12/25 | Interest (dog numbers) [3]: 143; total number of alerts or interest / total number of hides ([1]; Dog Number 143): 1/1; Total, alerts or interest as percent of hides [1]: 48.0%; Adjusted Total, alerts or interest / hides [1]: 7/20; Adjusted Total, alerts or interest as percent of hides [1]: 35.0%; alerts (canines alerting / canines tested) ([2]; Table 56, 100 ug): 1/7; interests (canines showing interest / canines tested) ([2]; Table 56, 100 ug): 1/7; % Alert ([2]; Table 56, Quart Can, 100 μl at 1000 ppm Acetonitrile on Cotton in Open Vial, 7 canines): 14.3%; interests (canines showing interest / canines tested) ([2]; Table 57, 5.0 mg): 1/9
